Results as given in PubChem BioAssay AID1471 (National Center for Advancing Translational Sciences (NCATS), 2008).
The list shows a part of the results, in another mix than the full data. Some structures show a salt or complex split into parts, the way the source records it. Active and inactive are the calls of the source. Calls come from the whole dose curve; as a rule, active = well fitted activation curve with a large enough effect; inconclusive = small, poorly fitted or top-dose-only effect; inactive = no such curve, though single readings can be large or run the other way.

Assay: qHTS Multiplex Assay to Identify Dual Action Probes in a Cell Model of Huntington: Cytoprotection (ATP);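 note: toxic huntingtin expression switched on by the ecdysone agonist tebufenozide; % of control where 0% means no effect; nearly all actives have a fitted effect of over 45% in size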
Conditions: PC12 HTT-Q103 induced, ATP luminescence, 40 h; at 56.4 µM unless noted
From the text: NIH Chemical Genomics Center [NCGC]
NIH Molecular Libraries Probe Production centers Network [MLPCN]
Assay Submitter (PI): Wei Zheng
Huntington's disease is a neurodegenerative disorder caused by a trinucleotide repeat expansion in Exon 1 of the Huntingtin gene. The CAG trinucleotide encodes glutamine and polyglutamine expansions cause cell death in selective areas of the brain. Huntington polyglutamine repeats have the tendency to form aggregates which are observable in later stages of the disease. The exact nature of the aggregates, whether toxic, protective, or insignificant, is unclear.
A stable PC12 cell line containing a gene fusion of Exon 1 of the Huntingtin gene linked to GFP under the control of the inducible ecdysone promoter were used as the cell-based model of Huntington Disease for high throughput screening. Exon 1 of the Huntingtin gene contained an expansion of 103 polyglutamines (Q103) which, when expressed, caused cell death and distinct, bright GFP aggregates. The amount of cell death and the size and intensity of GFP aggregates increased over time and induction level. The cell death were quantified with a measurement of ATP content in the cells. A maximal 40-50% of cell death was observed when the Huntington gene was induced in this cell line.
We optimized this assay in a homogeneous 1536 well format. A quantitative high throughput screen (qHTS) was conducted on the PC12 cells which were induced to express the toxic fusion construct. Small molecules which prevented cell death were identified by using a luminescent ATP quantification method (Perkin Elmer's ATPlite).
PC12 cells stably containing a construct with an ecdysone inducible promoter expressing GFP fused to the exon 1 of HTTQ103 (Huntington protein which containing a 103 ployglutamine expansion) were used.
NCGC Assay Protocol Summary:
Sequence, Parameter, Description
1, Reagent, 5 uL 1500 cells/well 1536 TC treated White clear bottom plate
2, Compound, 23 nL Tebufenozide inducer (100 nM final) to all columns
3, Compound, 23 nL 40 uM to 0.5 nM Libraries
5, Reagent, 5 ul ATPLite cell death assay reagent
6, Detector, 4 sec integration with a Viewlux Luminescent
Media consisted of phenol red free DMEM + 5% equine serum (Hyclone # SH30072.03 ), 5% supplemented Bovine Calf Serum (Hyclone # SH30074.03 ), 1x pen/strep, no G418
Control columns: 1 = DMSO, 2= 2 uM teb dilns (1:1), 4 = 100 nM Teb inducer. Sample columns received 100 nM Teb.

| SMILES | cytoprotection (ATP increase) |
| --- | --- |
| c1ccc(CN2CCC(Nc3ccccc3)CC2)cc1 | inactive: -9.66% |
| ClCCOP(OCCCl)OCCCl | inactive: -46.9% |
| CCOC(=O)C(CC)C1=NC(C)(C)Cc2ccccc21.O=[N+]([O-])c1cc([N+](=O)[O-])c(O)c([N+](=O)[O-])c1 (stereo unspecified) | inactive: 6.37% [at 10 µM] |
| N#Cc1ccc(C(=O)NCC2(N3CCCCC3)CCCCC2)cc1 | inactive: -22.8% |
| O=C(O)c1cccc(Nc2c([N+](=O)[O-])cc([N+](=O)[O-])cc2[N+](=O)[O-])c1 | inactive: -0.961% [at 10 µM] |
| N/C(=N\O)c1c(N)no[n+]1[O-] | inactive: -18.8% [at 0.074 µM] |
| COc1ccc(C(=O)NCC2(N3CCOCC3)CCCCC2)cc1OC | inactive: 0.641% |
| CCCOc1ccc(C)cc1CN(CCCl)CCCl | inactive: 13.2% [at 10 µM] |
| CCC(CO)(C(=O)OC1CN2CCC1CC2)c1ccccc1 (stereo unspecified) | inactive: -4.62% |
| COc1cc(OC)cc(C(=O)NCC2(N3CCOCC3)CCCCC2)c1 | inactive: -3.58% |
| O=C(O)C1(Nc2ccccc2)CCN(Cc2ccccc2)CC1 | inactive: 10.8% [at 10 µM] |
| CC(C)(C)OC(=O)N1CCC(Nc2ccccc2)CC1 | inactive: -25.4% |
| CCOc1ncccc1C(=O)NCC1(N2CCOCC2)CCCCC1 | inactive: 8.22% |
| CN(C)c1ccc(C(=O)NCC2(N3CCCCC3)CCCCC2)cc1 | inactive: -9.46% |
| Fc1ccccc1NC1CCN(Cc2ccccc2)CC1 | inactive: -4.02% |
| Cc1ccc(OCC(C)C)c(CN(CCCl)CCCl)c1 | inactive: 5.94% [at 10 µM] |
| COc1ccc(NC2CCN(CCc3ccccc3)CC2)c(OC)c1 | inactive: -21.7% |
| CCOc1ccc(C)cc1CN(CCCl)CCCl | inactive: 6.75% [at 10 µM] |

| SMILES | cytoprotection (ATP increase) |
| --- | --- |
| CCOC(=O)N1CCC(Nc2ccc(OC)cc2)CC1 | inactive: -0.0835% [at 10 µM] |
| O=C(OC1CN2CCC1CC2)C1c2ccccc2Oc2ccccc21 (stereo unspecified) | inactive: -30.9% |
| N#CC1(Nc2ccccc2)CCN(Cc2ccccc2)CC1 | inactive: -20.8% [at 10 µM] |
| O=C(NCC1(N2CCOCC2)CCCCC1)c1cc2ccccc2o1 | inactive: 4.45% |
| COc1ccc(C(=O)NCC2(N3CCCCC3)CCCCC2)c(OC)c1OC | inactive: -2.02% |
| NC1CCCCC1.NP(=O)(O)N(CCCl)CCCl | inactive: 1.96% [at 10 µM] |
| COc1ccc2c(c1O)-c1c(O)c(OC)cc3c1[C@H](C2)[N+](C)(C)CC3.O=[N+]([O-])c1cc([N+](=O)[O-])c([O-])c([N+](=O)[O-])c1[O-] | inactive: 5.14% [at 10 µM] |
| O=C(OC1CN2CCC1CC2)c1ccc([N+](=O)[O-])cc1 (stereo unspecified) | inactive: -16.1% [at 10 µM] |
| CCOP(=O)(Cl)Cl | inactive: -77.1% |
| CN(C)c1cccc(C(=O)NCC2(N3CCCCC3)CCCCC2)c1 | inactive: -29.3% |
| COc1ccc(CN(CCCl)CCCl)cc1Cl | inactive: 15.4% [at 10 µM] |
| CC(C)c1ccc(NC2CCN(C(=O)OC(C)(C)C)CC2)cc1 | inactive: 12.5% [at 10 µM] |
| CN1CCN(CCOC(=O)C(O)(c2ccccc2)c2ccccc2)CC1 | inactive: 2.65% [at 0.074 µM] |
| COc1ccc(NC2CCN(C(=O)OC(C)(C)C)CC2)cc1 | inactive: -41.7% |
| O=C(NCC1(N2CCOCC2)CCCCC1)c1cc(=O)[nH]c2ccccc12 | inactive: 16.3% |
| O=[N+]([O-])c1cc([N+](=O)[O-])c(NCC2CCS(=O)(=O)C2)c([N+](=O)[O-])c1 (stereo unspecified) | inactive: -193% |
| O=C(NCC1(N2CCCCC2)CCCCC1)c1cccc([N+](=O)[O-])c1 | inactive: -30.2% |
| N#CC1(Nc2ccccc2)CCN(CCc2ccccc2)CC1 | inactive: 21.1% |
